Patent publication US20260345802A1, “ANTIBODY-DRUG CONJUGATES AND LINKERS AND METHODS OF USE THEREOF” (priority 2023, published 2026)

Tested on: TNBC cells
Experiment: In vitro anti-TNBC cytotoxicity (MDA-MB-231, MDA-MB-468 and 4T1)
Settings: compared to free drugs and single-payload ADCs / other tested TLR7/8 agonists

CCCCc1nc2c(N)nc3ccccc3c2n1Cc1ccc(CN)cc1
cytotoxicity or potency to TNBC cells: high TNBC cytotoxicity
